Tests used:
[1] = system: GPI-PLC in hcDIGs of rat adipocytes; conditions: for stimulation of GPI-PLC activity preserved in hcDIGs: hcDIGs prepared from pretreated adipocytes, Panel C; for activation of GPI-PLC by direct incubation of hcDIGs: hcDIGs prepared from untreated adipocytes, Panel A
[2] = system: GPI-PLC in isolated rat adipocytes; conditions: for stimulation of GPI-PLC activity: isolated rat adipocytes, FIG. 4 Panels E, G
[3] = system: caveolin-1, IRβ and Glut4 in DIGs of rat adipocytes; conditions: FIG. 5

| Molecule | stimulation of GPI-PLC activity preserved in hcDIGs [1] [fold] | activation of GPI-PLC by direct incubation of hcDIGs [1] | stimulation of GPI-PLC activity [2] | effect on distribution of caveolin-1, IRβ and Glut4 [3] | effect on GPI-PLC in intact rat adipocytes [2] |
| --- | --- | --- | --- | --- | --- |
| Insulin: Human recombinant insulin | 1.7 | but not insulin | ≤ 3 fold |  |  |
| CCC1=C(C)CN(C(=O)NCCc2ccc(S(=O)(=O)NC(=O)N[C@H]3CC[C@H](C)CC3)cc2)C1=O [glimepiride] |  |  |  | not affected |  |
| CCCCCCCCCCCCP1(=O)O[C@@H]2[C@H](O)[C@@H](O)[C@H](O)[C@@H](O)[C@@H]2O1 (stereo partly drawn) [GPI-2350, myo-inositol-1,2-cyclo-dodecylphosphonic acid] |  |  |  | did not alter significantly | almost completely down regulates |
| CCC1=C(C)CN(C(=O)NCCc2ccc(S(=O)(=O)NC(=O)N[C@H]3CC[C@H](C)CC3)cc2)C1=O [Glimepiride, glimepiride] | 3 | up to 4 fold | up to 5 fold |  |  |
